{"sequences": {"note": "Chains of the proteins cited; added tags and fusions are not shown. Residues count along the entry.", "UniProt P03956, 100-469 limits assumed": "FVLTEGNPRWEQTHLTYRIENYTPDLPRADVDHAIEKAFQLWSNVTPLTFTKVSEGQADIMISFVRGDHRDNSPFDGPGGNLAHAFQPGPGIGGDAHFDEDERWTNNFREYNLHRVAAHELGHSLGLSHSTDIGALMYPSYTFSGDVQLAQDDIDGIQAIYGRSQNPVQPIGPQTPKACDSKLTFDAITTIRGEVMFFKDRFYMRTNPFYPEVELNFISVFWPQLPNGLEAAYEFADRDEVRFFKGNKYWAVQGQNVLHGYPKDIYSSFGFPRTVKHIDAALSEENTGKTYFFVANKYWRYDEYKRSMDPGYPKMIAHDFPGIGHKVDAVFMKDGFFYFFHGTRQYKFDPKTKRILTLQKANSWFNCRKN"}, "source": "patent US6340709B1", "origin": "cited, not measured here", "target": "MMP-1 (Homo sapiens, UniProt P03956)", "settings": "read-out: MMP-1 IC50; IA = inactive; cited from earlier work"}
{"compound": "CC(C)C[C@H](NC(=O)[C@H](CCc1ccccc1)CP(=O)(O)CCCCN1C(=O)c2ccccc2C1=O)C(=O)Nc1ccccc1", "values": [{"measurement": "IC50", "value": "> 10", "unit": "µM"}]}
